Results published in ChEMBL document CHEMBL1127317 (J Med Chem, 1994).

Experiment: Cytotoxic concentration in vitro in well-oxygenated mammalian cells

SMILES	pIC50
NC(=O)c1cc(N(CCCl)CCCl)c(N)cc1[N+](=O)[O-]	5.00
Nc1ccc(N(CCCl)CCCl)cc1	7.15

pIC50: −log10 of the molar value.
